Source: PubChem
Most compounds without a hit are left out; they make up all but 0.92% or so of the library.
miR-21 FLuc – miR-21 reporter, rising signal | HeLa miR-21 FLuc reporter, luciferase, 48 h | Potency, µM (top dose mostly 38.3 µM), inactives show at the highest dose reporter change, positive = more light | 340,000 tested, under 10 active | AID 2288; active = well fitted rising curve with a large enough effect; inconclusive = small, poorly fitted or top-dose-only effect; inactive = no such curve, though single readings can be large or run the other way;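 note: % of control where 0% means no effect; miR-21 action dims this reporter so a rising signal means less miR-21 action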
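Using DMEM plus 10% FBS, HeLa miR-21-FLuc cells are incubated with test compounds (final up to about 40uM) for 48 hours; firefly luciferase signal is then imaged following reagent-mediated lysis.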
Luc counter – counter-screen: inhibitors of Kinase-Glo firefly luciferase; Q27757; Kinase-Glo luciferase, ATP luminescence, 8 min; AID 1379; 0.28% of 200,000 active; Potency, µM (series often up to 38.3 µM), for inactives: at the highest dose activity change, negative = inhibition, actives largely listed as inhibitors; note: potency is the fitted concentration of half-maximal effect; % is set by controls: 0 for no effect and ±100 for the full control effect; nearly all actives have a fitted effect of over 60% in size
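Luminescence was the read-out, taken after 8-minute incubation at ambient temperature. Luciferase turned over luciferin with 10 uM ATP in imidazole pH 7.2 buffer containing KCl, MgCl2, Tween 20 and BSA.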
RXFP1 antagonist – antagonists of human relaxin receptor RXFP1; activity change, negative = inhibition, % at 57.5 µM; HEK293-RXFP1, relaxin-stimulated cAMP HTRF, 30 min; active compounds read low; 0.59% of 350,000 active; Q9HBX9;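 active = activity change of -60% or lower, but not beyond a set lower limit; inconclusive = change between -60% and -40%, or beyond the set limit; inactive = change above -40%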; note: % is set by controls: 0 for no effect and ±100 for the full control effect
PKM2 act – increases activity of human pyruvate kinase M2 | P14618 | purified PKM2, Kinase-Glo ATP luminescence, activation; response scale: 0% is enzyme alone, no compound | Potency, µM (titrated, usually from 57.5 µM), for the others: top-dose activation, most hits filed as activators | 0.34% of 260,000 active | AID 1631; note: potency is the fitted concentration of half-maximal effect; % is set by controls: 0 for no effect and ±100 for the full control effect; nearly all actives have a fitted effect of over 55% in size
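Purified hPK-M2 (>95%) run at intermediate activity with 0.1 mM ADP and 0.5 mM PEP in 50 mM imidazole pH 7.2, KCl, MgCl2; 1 h room temperature. ATP formed read by Kinase-Glo luminescence; normalized to uninhibited and no-enzyme controls.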
RXFP1 ag – agonists of human relaxin receptor RXFP1; HEK293T-RXFP1 cAMP TR-FRET, 30 min; response scale: percent of porcine relaxin response, buffer zero; Potency, µM (doses to about 57.5 µM), without a hit: at the top dose activation, usual class: activators; 0.3% of 370,000 active; AID 2676; note: potency is the fitted concentration of half-maximal effect; % is set by controls: 0 for no effect and ±100 for the full control effect; nearly all actives have a fitted effect of over 60% in size
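HEK293 cells stably expressing RXFP1, treated 30 min at 37C with compounds plus PDE4 inhibitor Ro 20174; cAMP measured by HTRF TR-FRET. Normalized to buffer and 29 nM porcine relaxin; EC50 by Hill fit.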
GALK inh – galactokinase (human) inhibition | 0.007% of 270,000 active | Potency, µM (titrated, usually from 57.5 µM), for the others: top-dose activity change, negative = inhibition, most hits filed as inhibitors | P51570 | AID 1868 | Purified GALK, Kinase-Glo residual ATP luminescence; note: potency is the fitted concentration of half-maximal effect; % is set by controls: 0 for no effect and ±100 for the full control effect
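Human GALK (5 nM) with 35 uM ATP and 100 uM galactose in 20 mM HEPES pH 8.0, 5 mM MgCl2, 60 mM NaCl, 1 mM DTT, 0.01% BSA. After 1 h at room temperature, leftover ATP was read by Kinase-Glo Plus luminescence.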
Starred values were filed as active, the others as inactive; [ ] = remark or other dose. Unless noted, calls come from the whole dose curve; as a rule, active = well fitted curve in the direction sought with a large enough effect; inconclusive = small, poorly fitted or top-dose-only effect, or another doubt; inactive = no such curve, though single readings can be large; an effect the other way counts as inactive or inconclusive.

For CCc1nc(N)nc(N)c1-c1ccc(N(C)Cc2ccccc2)c([N+](=O)[O-])c1 the results were RXFP1 antagonist -103*.
Cc1ccc(-c2nc(N/N=C/c3cccnc3)c3ccccc3n2)cc1 was read as miR-21 FLuc -15%, Luc counter 7.9µM*, RXFP1 antagonist -10, PKM2 act -5%, RXFP1 ag 3% and GALK inh 8%.
For Cc1ccc(-c2nc(N/N=C/c3cccc([N+](=O)[O-])c3)c3ccccc3n2)cc1 the results were miR-21 FLuc -12%, Luc counter -5%, RXFP1 antagonist -3, PKM2 act -1%, RXFP1 ag -3% and GALK inh -3%.
Cc1nnnn1/C(=C\c1ccccc1)C(=O)OCC(=O)Nc1ccc(Cl)cc1F was read as RXFP1 antagonist -64* and RXFP1 ag 1%.
C[C@@H]1CC[C@H]2[C@H](C)[C@H]3CC[C@H]4C5[C@@H](O)CC6=CC(=O)CC[C@]6(C)[C@H]5C[C@H]4C3C(=O)N2C1 (stereo partly drawn) was read as Luc counter 2%.
For N/C(=N\OC(=O)COc1ccc2ccccc2c1Br)c1cccnc1 the results were miR-21 FLuc -30%, Luc counter 2%, PKM2 act -1%, RXFP1 ag 16µM* and GALK inh -2%.
`N/C(=N\OC(=O)COc1ccc2ccccc2c1Br)c1ccccn1` gave miR-21 FLuc -65%, Luc counter 0%, RXFP1 antagonist 5, PKM2 act -9%, RXFP1 ag 16µM* and GALK inh -1%.
Screening N/C(=N\OC(=O)COc1ccc(Br)cc1Cl)c1ccccn1 returned miR-21 FLuc -30%, Luc counter -11%, RXFP1 antagonist 11, PKM2 act 3%, RXFP1 ag 2% and GALK inh -2%.
For CC(CCO)Nc1nc2c(c(=O)n(C)c(=O)n2C)n1Cc1ccc(Br)cc1 (stereo not drawn) the results were miR-21 FLuc -12%, RXFP1 antagonist 1 and RXFP1 ag 10%.
`COc1cc(S(=O)(=O)N(C)C)ccc1F` gave miR-21 FLuc -3%, Luc counter -1%, RXFP1 antagonist -1, PKM2 act -3%, RXFP1 ag 1% and GALK inh 0%.
`C/C=C/C(=O)C[C@H]1CC[C@@H](C)[C@@H](CCO)O1` gave Luc counter -3%.
Screening CC(CN(C)C)NC(=O)c1ccc(Cc2nc3ccccc3[nH]2)cc1 (stereo not drawn) returned Luc counter -2%.
`C/C(=C\CO)CCO` gave Luc counter 1%.
Screening CN1CCN(C(=O)c2cc(COc3c(F)cccc3F)on2)CC1c1ccccc1 (stereo not drawn) returned miR-21 FLuc inconclusive, Luc counter -1%, RXFP1 antagonist -21, PKM2 act 18µM*, RXFP1 ag 0% and GALK inh 0%.
For CCC(=O)N1N=C(c2ccc(Cl)cc2)CC1c1ccco1 (stereo not drawn) the results were miR-21 FLuc -22%, RXFP1 antagonist -64*, PKM2 act inconclusive, RXFP1 ag 0% and GALK inh -1%.
`CC1(C)OC(=O)Nc2ccc(Br)cc21` gave RXFP1 antagonist 10.
Cc1ccc(S(=O)(=O)CCSc2nc(C)cc(C)c2C#N)cc1 was read as miR-21 FLuc -1%, Luc counter 1%, RXFP1 antagonist -1, PKM2 act 25µM*, RXFP1 ag 2% and GALK inh -1%.
For CCCCC1=CC2=C(c3ccco3)C(=O)C(C)(OC(=O)c3ccc(OC)cc3)C(=O)C2=CN1CC(C)C (stereo not drawn) the results were miR-21 FLuc 5%, Luc counter -1%[7.66 µM], PKM2 act inconclusive, RXFP1 ag 16µM* and GALK inh -1%.
